Measurements: ChEMBL document CHEMBL4613315, “Design of First-in-Class Dual EZH2/HDAC Inhibitor: Biochemical Activity and Biological Evaluation in Cancer Cells” (ACS Med Chem Lett, 2020)

Chains of the proteins cited; added tags and fusions are not shown.
UniProt Q15910, whole entry, looked up: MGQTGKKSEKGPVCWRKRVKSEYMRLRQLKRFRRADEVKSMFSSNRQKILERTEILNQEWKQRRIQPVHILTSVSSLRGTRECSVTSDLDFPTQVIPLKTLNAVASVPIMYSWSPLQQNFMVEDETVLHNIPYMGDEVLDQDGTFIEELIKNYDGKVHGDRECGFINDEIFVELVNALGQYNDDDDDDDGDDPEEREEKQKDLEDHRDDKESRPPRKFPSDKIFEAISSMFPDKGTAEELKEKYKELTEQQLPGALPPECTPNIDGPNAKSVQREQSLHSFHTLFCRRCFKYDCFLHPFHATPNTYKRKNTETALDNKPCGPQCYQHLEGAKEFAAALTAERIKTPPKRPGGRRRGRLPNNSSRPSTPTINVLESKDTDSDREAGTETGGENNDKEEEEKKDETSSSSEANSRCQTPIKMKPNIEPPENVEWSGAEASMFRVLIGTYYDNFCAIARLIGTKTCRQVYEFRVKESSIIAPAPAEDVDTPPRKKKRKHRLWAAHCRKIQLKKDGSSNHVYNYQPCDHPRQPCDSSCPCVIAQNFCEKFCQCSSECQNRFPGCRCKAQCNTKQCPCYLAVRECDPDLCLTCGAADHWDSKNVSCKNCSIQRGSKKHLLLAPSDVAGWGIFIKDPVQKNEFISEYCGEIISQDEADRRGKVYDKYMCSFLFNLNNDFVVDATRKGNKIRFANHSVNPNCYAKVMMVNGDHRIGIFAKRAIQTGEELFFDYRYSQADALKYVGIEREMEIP

What was measured:
Assay type in all cases: cell-based
[1] = biological target: T1, Histone-lysine N-methyltransferase EZH2 (Homo sapiens, UniProt Q15910); assay: Inhibition of EZH2 in human U937 cells assessed as H3K27me3 level at 50 uM incubated for 96 hrs by Western blot analysis; conditions: U-937
[2] = biological target: T1, Histone-lysine N-methyltransferase EZH2; assay: Inhibition of EZH2 in human U937 cells assessed as H3K27me3 level at 50 uM incubated for 120 hrs by Western blot analysis; conditions: U-937
[3] = biological target: T2, Protein deacetylase HDAC6 (Homo sapiens) (UniProt Q9UBN7); assay: Inhibition of HDAC6 in human RH4 cells assessed as acetylated alpha-tubulin level at 50 uM incubated for 72 hrs by Western blot analysis
T2 sequence (whole entry): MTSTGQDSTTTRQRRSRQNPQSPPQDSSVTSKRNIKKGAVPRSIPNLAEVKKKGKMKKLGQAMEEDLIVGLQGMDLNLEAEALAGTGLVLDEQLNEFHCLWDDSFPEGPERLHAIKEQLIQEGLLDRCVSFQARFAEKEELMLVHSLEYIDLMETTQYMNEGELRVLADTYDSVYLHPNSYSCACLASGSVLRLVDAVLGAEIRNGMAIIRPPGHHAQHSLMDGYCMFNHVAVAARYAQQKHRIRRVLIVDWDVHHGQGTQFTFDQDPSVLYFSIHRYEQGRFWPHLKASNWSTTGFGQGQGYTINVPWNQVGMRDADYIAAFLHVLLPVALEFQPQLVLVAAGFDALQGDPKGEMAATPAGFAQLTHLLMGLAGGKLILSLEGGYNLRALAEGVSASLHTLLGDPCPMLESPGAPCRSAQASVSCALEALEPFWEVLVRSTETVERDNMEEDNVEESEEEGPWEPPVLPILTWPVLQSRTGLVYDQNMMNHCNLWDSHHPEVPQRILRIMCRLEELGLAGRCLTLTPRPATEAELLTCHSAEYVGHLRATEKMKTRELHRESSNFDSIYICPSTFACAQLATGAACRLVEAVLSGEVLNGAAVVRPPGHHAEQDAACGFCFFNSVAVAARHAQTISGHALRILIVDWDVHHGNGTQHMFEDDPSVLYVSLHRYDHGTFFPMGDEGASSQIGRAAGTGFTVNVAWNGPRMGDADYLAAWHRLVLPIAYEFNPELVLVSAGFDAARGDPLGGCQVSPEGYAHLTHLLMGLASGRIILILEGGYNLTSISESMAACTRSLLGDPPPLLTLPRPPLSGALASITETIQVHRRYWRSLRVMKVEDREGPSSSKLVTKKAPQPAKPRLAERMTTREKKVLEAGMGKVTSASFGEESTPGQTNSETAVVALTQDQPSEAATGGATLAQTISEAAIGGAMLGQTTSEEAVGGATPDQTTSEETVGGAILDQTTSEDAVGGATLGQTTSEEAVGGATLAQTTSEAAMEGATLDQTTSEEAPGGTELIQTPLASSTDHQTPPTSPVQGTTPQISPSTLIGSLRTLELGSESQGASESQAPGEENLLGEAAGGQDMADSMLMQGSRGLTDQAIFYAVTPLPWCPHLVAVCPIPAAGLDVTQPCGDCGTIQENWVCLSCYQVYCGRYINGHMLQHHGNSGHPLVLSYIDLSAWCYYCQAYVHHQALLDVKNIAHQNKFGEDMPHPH

[4] = biological target: T2, Protein deacetylase HDAC6 (Homo sapiens); assay: Inhibition of HDAC6 in human RH4 cells assessed as acetylated alpha-tubulin level at 50 uM incubated for 96 hrs by Western blot analysis
[5] = biological target: T1, Histone-lysine N-methyltransferase EZH2; assay: Inhibition of EZH2 in human RH4 cells assessed as H3K27me3 level at 50 uM incubated for 72 hrs by Western blot analysis
[6] = biological target: T1, Histone-lysine N-methyltransferase EZH2; assay: Inhibition of EZH2 in human RH4 cells assessed as H3K27me3 level at 50 uM incubated for 96 hrs by Western blot analysis

fold change (FC) [1]: 1.1
fold change (FC) [2]: 5.4
fold change (FC) [3]: 13.4
fold change (FC) [4]: 3.8
fold change (FC) [5]: 0.3
fold change (FC) [6]: 0.6
Compound: Cc1cc(C)c(CNC(=O)c2cc(C)n(-c3cccc(NC(=O)CCCCCCC(=O)NO)c3)c2C)c(=O)[nH]1
